The values below are quoted from earlier work in patent US20220235421A1, “DETECTING AND TREATING CISPLATIN SENSITIVE CANCER” (The Cleveland Clinic Foundation, priority 2021, published 2022).

The series concerns ALK-mutated tumors, non-small cell lung cancer. Conditions: Phase 3 trial; cited from earlier work.

For the molecule `C[C@@H](Oc1cc(-c2cnn(C3CCNCC3)c2)cnc1N)c1c(Cl)ccc(F)c1Cl` [Crizotinib], the “progression-free survival (PFS)” value is listed as 10.7 month.
